From patent US7067500B2, “Betaines as adjuvants to susceptibility testing and antimicrobial therapy” (priority 1997, dated 2006)

Test system: M. tuberculosis isolate 571/573-BAL
Test: Detergent screen for induced susceptibility, BACTEC 12B growth curves
Format: cell-based, Mycobacterium tuberculosis
Settings: detergent approximately 17 μg/ml final, BACTEC 12B supplemented with PANTA or P/cax (ceftriaxone 8 μg/ml)

What does the source list for CCCCCCCC/C=C\CCCCCCCC[N+](C)(C)[O-] [Mackamine O2, oleamine oxide]?
RESULT (effect on growth): Complete suppression of growth; RESULT (effect on growth) (listed as oleamine oxide): significantly suppress growth
